Assay [1] has as its target cation-independent mannose-6-phosphate receptor (CIMPR) on fibroblast cells (human) (UniProt P11717).
The target in assay [2] is cation-independent mannose-6-phosphate receptor (CIMPR), immobilised. As to the kind of experiment: CIMPR affinity chromatography of ATB200 rhGAA purified without AEX capture (Embodiment 1). This is the flow-through peak before M6P addition; fractions were assayed for GAA activity (F460).
The target is the same in assay [3]. In words: CIMPR affinity column, same condition as for MYOZYME and LUMIZYME
The target of assay [4] is cation-independent mannose-6-phosphate receptor (CIMPR) on fibroblast cells (human) (UniProt P11717). In words: cell-based or functional assay.
The target in assay [5] is cation-independent mannose-6-phosphate receptor (CIMPR), immobilised. In words: CIMPR affinity chromatography, different production batches.
For assay [6] the target is unchanged. In words: M6P receptor (CIMPR) plate binding assay.
Assay [7] shares this target. As to the kind of experiment: CIMPR affinity chromatography of ATB200 rhGAA purified with capture on an AEX column (Embodiment 2). Bound material was eluted with a free M6P gradient and fractions were assayed for GAA activity (F460).
For assay [8] the target is unchanged. In words: CIMPR affinity chromatography of ATB200 rhGAA purified with capture on an AEX column (Embodiment 2). This is the flow-through peak before M6P addition; fractions were assayed for GAA activity (F460).
The target is the same in assay [9]. As to the kind of experiment: CIMPR affinity chromatography of ATB200 rhGAA purified without AEX capture (Embodiment 1). Bound material was eluted with a free M6P gradient and fractions were assayed for GAA activity (F460).
For assay [10] the target is unchanged. In words: CIMPR affinity column, elution with free M6P gradient, fractions read by GAA activity.

This is an account of results in patent US20260207718A1, “METHODS FOR TREATING LATE ONSET POMPE DISEASE IN PEDIATRIC PATIENTS” (Amicus Therapeutics, Inc., priority 2022, published 2026).

pKd: −log10 of the molar value.

Broadly, the pKd is the Kd on a negative log10 scale, so that one unit is a factor of ten. High values mean a low Kd, low ones a high Kd. “ATB200 recombinant human acid α-glucosidase (rhGAA) (from UniProt P10253 57-952) (enzyme)” showed a Kuptake, Pompe fibroblasts in assay [1] of 3 nM. The same substance displayed a Kuptake, normal fibroblasts in assay [1] of 2 nM. In addition, the values for the fraction not bound to the CIMPR column, flow-through (percent of total GAA activity) in assay [2] and in [8] were 30% and 8%, respectively. The percent of rhGAA bound to CIMPR in assay [3] and in [5] was over 70% throughout. The concentration that saturates cellular receptors (uptake into normal and Pompe fibroblasts, 16-hr incubation, internalized GAA activity) in [4] came to 20 nM. Further, the negative logarithm of the Kd (pKd) in [6] is 8.40 to 8.70. In addition, the fraction bound to the CIMPR column and eluted with M6P (percent of total GAA activity) in [7] was 92%; in [9], 70%.

In the case of “LUMIZYME® (alglucosidase alfa, conventional rhGAA product) (from UniProt P10253 57-952) (enzyme)”, in [1], the Kuptake, Pompe fibroblasts stood at 57 nM and the Kuptake, normal fibroblasts worked out at 56 nM. Moreover, in assay [4], the concentration that saturates cellular receptors (uptake into normal and Pompe fibroblasts, 16-hr incubation, internalized GAA activity) was 250 nM; the uptake efficiency constant (Kuptake) worked out at 56 nM. For the same substance, in assay [10], the percent of rhGAA bound to CIMPR (M6P eluted) stood at 22% and the percent of rhGAA not bound to CIMPR (flow through) was found to be 78%.

In assay [10], “MYOZYME® (alglucosidase alfa, conventional rhGAA product) (from UniProt P10253 57-952) (enzyme)” came in with a percent of rhGAA bound to CIMPR (M6P eluted) of 27% and a percent of rhGAA not bound to CIMPR (flow through) of 73%.
